Measurements from PubChem BioAssay AID588456 (National Center for Advancing Translational Sciences (NCATS), 2011).
Screen size: about 390,000 compounds; about 55 (0.01%) were called active. Only results without a clear call are listed here; the source files them as inconclusive. Calls follow the shape of the dose curve; as a rule, active = well fitted inhibition curve with a large enough effect; inconclusive = small, poorly fitted or top-dose-only effect; inactive = no such curve, though single readings can be large or run the other way.

Protein sequences, listed by entry. Tags and fused reporters are not part of them.
UniProt O89049, whole entry, looked up: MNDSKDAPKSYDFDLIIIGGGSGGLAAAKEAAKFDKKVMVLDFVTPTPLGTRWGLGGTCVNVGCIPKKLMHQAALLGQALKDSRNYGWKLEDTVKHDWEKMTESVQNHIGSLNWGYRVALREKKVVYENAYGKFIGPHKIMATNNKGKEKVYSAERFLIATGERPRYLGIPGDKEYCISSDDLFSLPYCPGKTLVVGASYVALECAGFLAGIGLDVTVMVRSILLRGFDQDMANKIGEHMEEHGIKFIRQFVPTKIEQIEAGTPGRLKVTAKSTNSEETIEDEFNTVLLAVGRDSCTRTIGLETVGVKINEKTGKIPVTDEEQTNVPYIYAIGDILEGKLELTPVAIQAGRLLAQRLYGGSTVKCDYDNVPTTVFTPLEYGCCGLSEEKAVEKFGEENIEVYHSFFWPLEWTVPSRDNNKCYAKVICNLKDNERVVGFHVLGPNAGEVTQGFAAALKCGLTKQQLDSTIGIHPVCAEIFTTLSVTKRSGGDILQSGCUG

These compounds were tested against Thioredoxin reductase 1, cytoplasmic (Rattus norvegicus) (UniProt O89049) (assay: qHTS Assay for Substrates of Mammalian Selenoprotein Thioredoxin Reductase 1 (TrxR1): qHTS). Settings: purified TrxR1 substrate turnover, NADPH consumption readout.

Row | SMILES | Potency
1 | CN(C(=O)Cc1ccc(Cl)c(Cl)c1)[C@@H]1CC[C@]2(CCCO2)C[C@H]1N1CCCC1 | inconclusive: 4.74 µM
2 | CC(=O)Nc1ccc(Oc2c([N+](=O)[O-])cc([N+](=O)[O-])cc2[N+](=O)[O-])cc1 | inconclusive: 39.8 µM
